The nature of this data set: PAMPA-BBB permeability assay (stirring Double-Sink). The following applies: Table S3: compounds exhibiting low PAMPA-BBB permeability.

Take `CC(=O)C1=CCCC2CCC1N2` (stereo not shown): the “PAMPA-BBB Pe(10^-6 cm/sec)” value is on record as 9.5 10^-6 cm/sec.
